# From PubChem BioAssay
# Wnt act – activators of Wnt/beta-catenin signaling | Wnt/beta-catenin reporter cell assay, activator, plate reader | activation, % at 9.35 µM | 300,000 compounds, 1.2% hits; in the data active = activation above about 30%, passing the limit was not always enough; inconclusive = no clear call, values can overlap the other calls;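 note: 0% = neutral control wells and 100% = positive control wells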
# MITF TRPM1 inh – reduces MITF-dependent TRPM1 promoter luciferase signal | 330,000 compounds, 0.83% hits | SK-MEL-5 TRPM1 promoter luciferase, 24 h | inhibition, % at 12.5 µM;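 active = mean inhibition across replicates of 60% or more, whatever share of single replicates reaches that level; inconclusive = some that reach 60%, reason not given; inactive = mean inhibition across replicates below 60%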
# MITF TRPM1 HTS – increases MITF-driven TRPM1 promoter luciferase signal; 300,000 compounds, 0.75% hits; SK-MEL-5 TRPM1-promoter luciferase, 24 h; % of positive control, neutral wells = 0; activation, % at 12.5 µM; AID 588334;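 active = mean activation of at least 80% with every replicate also reaching 80%; inconclusive = mean reaches 80% but some replicate falls short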;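 note: 0% = neutral control wells and 100% = parthenolide positive control wells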
# miR-122 sensor – blocks miR-122 activity in Huh7 sensor cells | Huh7 miR-122 Renilla luciferase sensor, 48 h; neutral wells = 0, positive control = 100 | activation (reporter increase), % at 12.5 µM | 340,000 compounds, 0.3% hits | AID 602342;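 active = mean replicate activation score at least 90 and every replicate individually at or above 90; inconclusive = only one of the two criteria met; inactive = neither criterion met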;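 note: higher luciferase means less miR-122 activity so hits act as miR-122 inhibitors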
# Yeast UUG start – modulators of start codon recognition fidelity in yeast; AID 602363; hit rate 0.13% among 350,000; activity score, % at 18.7 µM; S. cerevisiae UUG-firefly luciferase reporter, luminescence/redox ratio;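 active = replicate mean at a twofold rise or more, about +100% in these data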;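 note: firefly luciferase made from a UUG start codon reports start codon fidelity; reporter light over untreated wells divided by growth signal over untreated wells; some hits fall short of that in this replicate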
# PGC1a acetyl inh – modulators of PGC1a acetylation; U2OS PGC1a acetylation, AlphaScreen anti-acetyl-lysine; with virally co-expressed GCN5 acetyltransferase; inhibition, % at 15.6 µM; 350,000 compounds, 0.17% hits; AID 651687;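 active = every replicate shows inhibition of at least 40%; inconclusive = mean inhibition at least 40% but some replicate below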;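 note: 0% = neutral control wells and 100% = positive control wells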
# Numbers without * were called inactive; ? = inconclusive; nt = no result; [ ] = dose if it differs, or a comment. Rows were chosen to be rich in hits. Some 2.1% of all compounds tested hit in one or more screens of this group.
# Screens by letter – A = Wnt act; B = MITF TRPM1 inh; C = MITF TRPM1 HTS; D = miR-122 sensor; E = Yeast UUG start; F = PGC1a acetyl inh
Molecule: Cc1cc(NC(=O)CCN2C(=O)c3ccccc3C2=O)no1
  A = nt	B = -10	C = nt	D = -7	E = -5	F = -1

Molecule: O=C(Nc1ccc(F)cc1)c1sc2cc(C(F)(F)F)cnc2c1-c1cccs1
  A = nt	B = 6	C = -3	D = -1	E = nt	F = 114*

Molecule: Cc1noc(C)c1S(=O)(=O)Nc1ccc2c(c1)C(=O)N([C@@H](C)CO)C[C@@H](C)[C@@H](CN(C)S(=O)(=O)c1ccccc1)OCCCC[C@@H](C)O2
  A = nt	B = nt	C = nt	D = -4[16.7 µM]	E = -2	F = -8

Molecule: COc1cc(OC)cc(-c2nc3cc(C)ccc3o2)c1
  A = 57*	B = -53	C = 52	D = 14	E = -27	F = nt

Molecule: Cc1ccc(-c2nc3cc(Cl)ccc3o2)cc1
  A = nt	B = 2	C = -1	D = 3	E = -28	F = 6

Molecule: O=C(C[C@@H]1CC[C@H]2[C@@H](COC[C@@H](O)CN2Cc2ccc(Cl)cc2)O1)NCCc1ccccc1
  A = nt	B = nt	C = nt	D = -7[16.7 µM]	E = -11	F = -5

Molecule: CN(C)C(=O)/C(=C/c1cn(-c2ccccc2)nc1-c1cccc([N+](=O)[O-])c1)NC(=O)c1ccccc1
  A = 56*	B = 15	C = -13	D = -1	E = -12	F = 14

Molecule: C[C@H](CO)N1C[C@H](C)[C@H](CN(C)C)OCCCC[C@H](C)Oc2ccc(NS(=O)(=O)c3ccc(F)cc3)cc2C1=O
  A = nt	B = nt	C = nt	D = 0[16.7 µM]	E = 3	F = 3

Molecule: COc1cc(CNCCN2CCOCC2)ccc1OCc1ccc(Cl)cc1Cl
  A = nt	B = -1	C = 1	D = -5	E = 4	F = 101*

Molecule: COc1cc(CNCCN2CCOCC2)ccc1OCc1cccc(Cl)c1
  A = -1	B = -21	C = 23	D = 9	E = -20	F = -4

Molecule: c1ccc(OCc2nc(-c3ccccc3)no2)cc1
  A = 78*	B = -93	C = 102*	D = -9	E = -14	F = 2

Molecule: c1ccc(SCc2nc(-c3ccncc3)no2)cc1
  A = 26	B = -95	C = 91*	D = -1	E = -10	F = -4

Molecule: C[C@@H]1CCCCO[C@@H](CN(C)Cc2ccccc2)[C@H](C)CN([C@H](C)CO)C(=O)c2cc(NC(=O)NC3CCCCC3)ccc2O1
  A = nt	B = nt	C = nt	D = -10[16.7 µM]	E = 15	F = -3

Molecule: C[C@@H]1CCCCO[C@H](CN(C)Cc2ccc(C(F)(F)F)cc2)[C@H](C)CN([C@H](C)CO)C(=O)c2cc(NS(=O)(=O)c3ccc(F)cc3)ccc2O1
  A = nt	B = nt	C = nt	D = -11[16.7 µM]	E = 21	F = 8

Molecule: CCCCCCCCn1c2c(c(=N)c3ccccc31)CCC2
  A = -34	B = 90*	C = -90	D = -16	E = nt	F = 23

# Shown as labelled records: 3 of the compounds above.
Compound: c1ccc(OCc2nc(-c3ccccc3)no2)cc1
  Wnt act: 78*
  MITF TRPM1 inh: -93
  MITF TRPM1 HTS: 102*
  miR-122 sensor: -9
  Yeast UUG start: -14
  PGC1a acetyl inh: 2
Compound: Cc1ccc(-c2nc3cc(Cl)ccc3o2)cc1
  Wnt act: nt
  MITF TRPM1 inh: 2
  MITF TRPM1 HTS: -1
  miR-122 sensor: 3
  Yeast UUG start: -28
  PGC1a acetyl inh: 6
Compound: c1ccc(SCc2nc(-c3ccncc3)no2)cc1
  Wnt act: 26
  MITF TRPM1 inh: -95
  MITF TRPM1 HTS: 91*
  miR-122 sensor: -1
  Yeast UUG start: -10
  PGC1a acetyl inh: -4

# New compounds follow:
# Screens by letter – A = Wnt act; B = MITF TRPM1 inh; C = MITF TRPM1 HTS; D = miR-122 sensor; E = Yeast UUG start; F = PGC1a acetyl inh
Molecule: CCn1c2c(c(=N)c3c1CCC3)CCCC2
  A = 1	B = nt	C = nt	D = -2	E = -8	F = 3

Molecule: N=c1c2c(n(Cc3ccc(Cl)cc3)c3c1CCC3)CCC2
  A = -3	B = 64*	C = -60	D = 1	E = -9	F = -19

Molecule: N=c1c2c(n(Cc3ccc(F)cc3)c3c1CCC3)CCCC2
  A = -1	B = 33	C = -32	D = nt	E = nt	F = -1

Molecule: CCCCCCCCCn1c2c(c(=N)c3c1CCC3)CCCC2
  A = nt	B = 92*	C = -91	D = -7	E = nt	F = 33

Molecule: CCCCCCCCCCn1c2c(c(=N)c3c1CCC3)CCC2
  A = -39	B = 81*	C = nt	D = -66	E = -6	F = nt

Molecule: C[C@@H]1CN([C@@H](C)CO)C(=O)Cc2cc(NC(=O)Nc3cccc4ccccc34)ccc2O[C@H]1CN(C)C(=O)Nc1ccc(F)cc1
  A = nt	B = nt	C = nt	D = 1[16.7 µM]	E = 25	F = 2

Molecule: O=c1c2ccccc2nc(SCc2cn3ccsc3n2)n1-c1ccccc1
  A = -1	B = 7	C = -3	D = 3	E = -35	F = -10

Molecule: c1ccc2oc(SCc3cn4ccsc4n3)nc2c1
  A = 66*	B = -50	C = 50	D = -3	E = -29	F = 6

Molecule: Cc1csc2nc(CSc3nc4ccccc4o3)cn12
  A = 34*	B = -79	C = ?	D = 0	E = 0	F = -7

Molecule: CCS(=O)(=O)N1CCCCN2[C@H](CO)[C@@H](c3ccc(C#Cc4ccccc4OC)cc3)[C@H]2C1
  A = nt	B = nt	C = nt	D = -6[16.7 µM]	E = 7	F = -6

Molecule: OCc1cn(-c2ccccc2)nc1-c1cc2ccccc2o1
  A = 57*	B = -76	C = 73	D = -8	E = -16	F = -6

Molecule: COc1ccccc1NC(=O)N1C[C@H]2[C@@H](c3ccccc31)[C@@H](CO)N2C(=O)c1ccccc1
  A = nt	B = nt	C = nt	D = 50[16.7 µM]	E = 9	F = -2

Molecule: COC(=O)c1ccc(/C=C(\C#N)C(=O)NC(C)c2ccccc2)cc1 (stereo unspecified)
  A = -5	B = 81*	C = -81	D = nt	E = nt	F = nt

Molecule: COc1ccc(-c2cc(=O)[nH]c3ccccc23)cc1
  A = -1	B = 9	C = -11	D = 5	E = -11	F = -9

Molecule: COc1cccc2[nH]c(=O)c(-c3ccccc3)cc12
  A = 21	B = -89	C = 105*	D = 3	E = -1	F = -2

Molecule: Cc1ccc(S(=O)(=O)Nc2ccc3c(c2)CC(=O)N([C@@H](C)CO)C[C@H](C)[C@H](CN(C)C(=O)NC2CCCCC2)O3)cc1
  A = nt	B = nt	C = nt	D = -10[16.7 µM]	E = 1	F = -8

Molecule: CN(C)c1cccc2c1C(=O)c1ccccc1C2=O
  A = -2	B = 5	C = -4	D = nt	E = nt	F = nt

Molecule: O=C1c2cccc(Sc3ccccc3)c2C(=O)c2c(Sc3ccccc3)cccc21
  A = 2	B = -12	C = nt	D = 1	E = 119*	F = -7

Molecule: COc1cccc2c1-c1c(O)cccc1C2=O
  A = -1	B = 8	C = -5	D = nt	E = -8	F = nt

Molecule: CC1OC(CC(=O)O)CC2=C1C(=O)c1c(O)cccc1C2=O (stereo unspecified)
  A = -6	B = 113*	C = nt	D = -10	E = nt	F = 75*

Molecule: CC(=O)N1[C@@H]2Cn3c(ccc(C4=CCCC4)c3=O)[C@H]1[C@@H](C(=O)NCc1ccccc1)[C@@H]2CO
  A = nt	B = nt	C = nt	D = -2[16.7 µM]	E = nt	F = 4

Molecule: COc1cccc(NC(=O)c2ccccc2-c2ccccc2C(=O)O)c1
  A = 0	B = 24	C = nt	D = -1	E = -7	F = 81*

Molecule: COc1cccc(NC(=O)c2ccccc2F)c1
  A = ?	B = -88	C = 87*	D = 0	E = -20	F = 4

Molecule: CCc1c(C(=O)Nc2cc(C)cc(C)c2)[nH]c(C)c1C(C)=O
  A = 3	B = -13	C = nt	D = 121*	E = nt	F = nt

Molecule: O=C(Nc1ccc2c(c1)Cc1ccccc1-2)c1ccccc1F
  A = 49*	B = nt	C = nt	D = nt	E = nt	F = 9

Molecule: CC(=O)c1cccc(NC(=O)c2ccccc2-c2ccccc2C(=O)O)c1
  A = 4	B = -7	C = nt	D = -1	E = -5	F = 7

Molecule: O=C(O)C[C@H]1C[C@H]2c3cc(NC(=O)Nc4ccccc4)ccc3O[C@H]2[C@H](CO)O1
  A = nt	B = nt	C = nt	D = 0[16.7 µM]	E = 1	F = 14

Molecule: COc1cccc(NC(=O)c2cc3ccccc3cc2OC)c1
  A = 49*	B = -59	C = nt	D = 1	E = -22	F = 9

Molecule: COc1cccc(NC(=O)c2csc3c2CCCC3)c1
  A = 46*	B = -83	C = 95*	D = -7	E = 4	F = -4

Molecule: COc1cccc(C(=O)Nc2ccccc2)c1
  A = nt	B = -40	C = nt	D = -6	E = nt	F = nt

Molecule: COc1cccc(C(=O)Nc2cccc(SC)c2)c1
  A = 5	B = -75	C = 80*	D = 0	E = -4	F = 2

Molecule: CSc1cccc(NC(=O)c2[nH]c(C)c(C(C)=O)c2C)c1
  A = 19	B = -127	C = 133*	D = 37	E = nt	F = nt

Molecule: C[C@H](NC(=O)C[C@H]1C[C@H]2c3cc(NC(=O)NC4CCCC4)ccc3O[C@H]2[C@H](CO)O1)c1ccccc1
  A = nt	B = nt	C = nt	D = -5[16.7 µM]	E = -7	F = 0

Molecule: COc1cccc(C(=O)Nc2cccc(NC(=O)c3ccccc3Cl)c2)c1
  A = -3	B = -16	C = nt	D = -5	E = -15	F = 2

Molecule: COc1cccc(C(=O)Nc2cccc(C(=O)NC3=NN(c4c(Cl)cc(Cl)cc4Cl)C(=O)C3)c2)c1
  A = 32*	B = 12	C = nt	D = -1	E = -6	F = nt

Molecule: COc1cc2ccccc2cc1C(=O)Nc1ccc(O)cc1
  A = 53*	B = -54	C = nt	D = 3	E = -23	F = -4

Molecule: COCCNC(=O)c1cc2c(s1)-c1ccc(Cl)cc1SC2
  A = 43*	B = -61	C = 42	D = -4	E = 1	F = 12
